Patent US9409891B2, “Solid forms of an antiviral compound” (Gilead Sciences, Inc., priority 2012, dated 2016)

Experiments:
[1] = Stable form competition study in ACN; type: physicochemical
Description: To further verify the stability of Form II, competitive crystallization was conducted by adding Forms I through V into a high concentration solution of amorphous Compound I in ACN. […] The mother liquor obtained, which was saturated in terms of Form II, was used in another test in which other forms (Forms I, III, IV and V) were added.

[2] = Follow-up stable form screening (Form II stirred in solvents at about 22° C.); type: physicochemical; conditions: EtOH/water (52/48), Form II start, value for Form V
Description: In the follow-up stable form screening experiments, the starting materials were Form II. The solids were stirring in the solvents list below at about 22° C. in 2 ml vials.

5-(3,3-dimethylbutyn-1-yl)-3-[(cis-4-hydroxy-4-{[(3S)-tetrahydrofuran-3-yloxy]methyl}cyclohexyl){[(1R)-4-methylcyclohex-3-en-1-yl]carbonyl}amino]thiophene-2-carboxylic acid hydrate and/or solvate [Form III]
Behaviour of solids added to mother liquor saturated in Form II [1]: dissolved quickly

5-(3,3-dimethylbutyn-1-yl)-3-[(cis-4-hydroxy-4-{[(3S)-tetrahydrofuran-3-yloxy]methyl}cyclohexyl){[(1R)-4-methylcyclohex-3-en-1-yl]carbonyl}amino]thiophene-2-carboxylic acid solvate [Form V]
Solubility [2]: 8000 µg/mL
Behaviour of solids added to mother liquor saturated in Form II [1]: dissolved quickly
